Tested on: transporters at major organ sites
Test: Prediction of transporter-mediated inhibition / DDI potential
Details: of 11 transporters; FDA criteria

Compound: COc1cc2c(c(OC)c1OC)-c1ccc(OC)c(=O)cc1[C@@H](NC(C)=O)CC2 [Colchicine]
- No. of transporters at major organ sites inhibited at clinical concentrations: 0

— PMC8217266 (Clinical Pharmacology and Therapeutics, 2021)
